Data published in ChEMBL document CHEMBL1124682, “Quaternary salts of 2-[(hydroxyimino)methyl]imidazole. 3. Synthesis and evaluation of (alkenyloxy)-, (alkynyloxy)-, and (aralkyloxy)methyl quaternarized 2-[(hydroxyimino)methyl]-1-alkylimidazolium halides as reactivators and therapy for soman intoxication” (1989).

Protein sequences, listed by entry. Tags and fused reporters are not part of them. Residues count along the entry.
UniProt P22303, 32-614 limits assumed: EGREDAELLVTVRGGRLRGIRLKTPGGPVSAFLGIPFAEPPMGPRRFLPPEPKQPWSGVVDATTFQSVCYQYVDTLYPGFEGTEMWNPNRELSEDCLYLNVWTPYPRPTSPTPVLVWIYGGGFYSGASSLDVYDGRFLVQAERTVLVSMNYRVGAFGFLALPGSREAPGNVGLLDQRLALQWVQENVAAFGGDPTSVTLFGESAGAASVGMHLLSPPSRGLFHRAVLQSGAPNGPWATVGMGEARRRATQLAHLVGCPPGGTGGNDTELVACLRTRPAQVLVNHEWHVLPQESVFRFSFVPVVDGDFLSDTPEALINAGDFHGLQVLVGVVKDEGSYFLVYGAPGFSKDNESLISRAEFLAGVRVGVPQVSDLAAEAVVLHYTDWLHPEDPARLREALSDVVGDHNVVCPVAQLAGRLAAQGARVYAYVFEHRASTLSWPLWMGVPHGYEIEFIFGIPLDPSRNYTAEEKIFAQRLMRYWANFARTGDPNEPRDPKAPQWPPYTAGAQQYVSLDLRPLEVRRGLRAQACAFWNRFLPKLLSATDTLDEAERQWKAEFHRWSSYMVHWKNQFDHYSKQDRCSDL

Legend:
Acetylcholinesterase [1] = biological target: T1, Acetylcholinesterase (Homo sapiens, UniProt P22303); test: Reversible inhibition of acetylcholinesterase (AChE) by 50 % in human erythrocytes
Acetylcholinesterase [2] = biological target: T1, Acetylcholinesterase; test: Concentration of compound that reversibly inhibits acetylcholinesterase (AChE) by 50 %

Row | SMILES | IC50 (Acetylcholinesterase [1]) | IC50 (Acetylcholinesterase [2])
1 | C#CCC(CCC)OC[n+]1ccn(C)c1/C=N/O (stereo not given) | 5.21 µM | –
2 | C#CC(CC)OC[n+]1ccn(C)c1/C=N/O (stereo not given) | 7.81 µM | –
3 | C#CC(C)OC[n+]1ccn(C)c1/C=N/O (stereo not given) | 11.9 µM | –
4 | C#CC1(OC[n+]2ccn(C)c2/C=N/O)CCCC1 | 24.2 µM | –
5 | C#CCC(C)OC[n+]1ccn(C)c1/C=N/O (stereo not given) | 8.72 µM | –
6 | C#CCCOC[n+]1ccc(/C=N/O)cc1 | – | 96.5 µM
7 | C#CC(C)C(C)OC[n+]1ccn(C)c1/C=N/O (stereo not given) | 12.7 µM | –
8 | CC#CCCOC[n+]1ccn(C)c1/C=N/O | 76.8 µM | –
9 | C#CCCOC[n+]1ccn(C)c1/C=N/O | 14.5 µM | –
10 | C#CCCCOC[n+]1ccn(C)c1/C=N/O | 27.9 µM | –
11 | C#CC(CCC)OC[n+]1ccn(C)c1/C=N/O (stereo not given) | 8.27 µM | –
12 | C#CCOC[n+]1ccn(C)c1/C=N/O | 21.8 µM | –
13 | C#CCCCC[n+]1ccn(C)c1/C=N/O | – | 8.5 µM
14 | C#CC1CCCCC1OC[n+]1ccn(C)c1/C=N/O (stereo not given) | 20.3 µM | –
15 | C#CC(C)(C)OC[n+]1ccn(C)c1/C=N/O | 24.2 µM | –
